Experimental data as given in patent US10208066B2, “Imidazopyridazine compounds and their use” (HUTCHISON MEDIPHARMA LIMITED, priority 2014, dated 2019).

Amino acid sequences for entries named in this document (tags omitted). A change or cut given only in a name is not applied to a line headed by its entry.
UniProt O00329, whole entry, species assumed: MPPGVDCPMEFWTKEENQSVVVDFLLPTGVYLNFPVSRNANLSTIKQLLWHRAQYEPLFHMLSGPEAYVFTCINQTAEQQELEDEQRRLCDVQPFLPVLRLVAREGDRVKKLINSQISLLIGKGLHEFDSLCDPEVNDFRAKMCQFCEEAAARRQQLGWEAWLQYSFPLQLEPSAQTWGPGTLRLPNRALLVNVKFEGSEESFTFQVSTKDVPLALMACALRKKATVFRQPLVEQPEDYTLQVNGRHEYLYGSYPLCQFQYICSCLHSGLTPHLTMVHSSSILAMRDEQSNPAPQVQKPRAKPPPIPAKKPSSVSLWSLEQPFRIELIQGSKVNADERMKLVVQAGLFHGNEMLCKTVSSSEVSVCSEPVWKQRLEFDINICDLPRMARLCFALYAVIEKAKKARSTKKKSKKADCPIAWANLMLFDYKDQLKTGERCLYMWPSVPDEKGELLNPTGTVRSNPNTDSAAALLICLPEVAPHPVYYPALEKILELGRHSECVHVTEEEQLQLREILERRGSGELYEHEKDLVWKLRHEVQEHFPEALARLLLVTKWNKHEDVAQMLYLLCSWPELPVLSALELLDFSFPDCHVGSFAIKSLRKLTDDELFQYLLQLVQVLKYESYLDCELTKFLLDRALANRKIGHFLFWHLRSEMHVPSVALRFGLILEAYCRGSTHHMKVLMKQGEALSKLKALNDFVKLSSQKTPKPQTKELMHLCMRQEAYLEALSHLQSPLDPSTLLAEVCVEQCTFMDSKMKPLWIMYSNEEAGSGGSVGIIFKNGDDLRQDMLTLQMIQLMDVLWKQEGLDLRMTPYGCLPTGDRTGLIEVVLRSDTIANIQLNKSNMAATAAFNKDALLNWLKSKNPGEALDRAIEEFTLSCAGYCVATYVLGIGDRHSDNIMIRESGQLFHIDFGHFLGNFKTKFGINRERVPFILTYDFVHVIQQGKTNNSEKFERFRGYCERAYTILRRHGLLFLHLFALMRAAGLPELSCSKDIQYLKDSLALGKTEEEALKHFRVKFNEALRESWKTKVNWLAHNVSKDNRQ

Columns and labels:
PI3K-δ (p110δ/p85α) = PI3K-δ (p110δ/p85α) (Homo sapiens (Human), UniProt O00329); assay: Transcreener KINASE Assay, fluorescent determination of PI3K enzyme activity; type: biochemical;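 note: ADP formed by the kinase detected via far-red competitive fluorescence polarization immunoassay after 80 min room-temperature reaction, inhibition relative to 2% DMSO wells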
[1] = test system: AKT phosphorylation (p-AKT Ser473) in Ramos cells; assay: Inhibition of AKT phosphorylation in Ramos cell line (anti-IgM stimulated); type: cell-based; conditions: Homo sapiens, anti-IgM stimulation

## CC(Nc1ncnc(N)c1C#N)c1cc2ncc(Cl)n2nc1-c1ccccc1 (racemic) [Compound 2, 4-amino-6-((1-(3-chloro-6-phenylimidazo[1,2-b]pyridazin-7-yl)ethyl)amino)pyrimidine-5-carbonitrile]
PI3K-δ (p110δ/p85α)
  IC50: 1 nM
[1]
  IC50: 1 nM
